The test system of assay [1] is NCI-H2122 cells. Briefly: IC50 of FAK inhibitor used to set the ¼IC50 concentration in the NCI-H2122 proliferation assay. To be noted: single agent; stated in legends of FIG. 6 / FIG. 7 (NCI-H2122 cells); cell line of the IC50 not explicitly stated. On the procedure: • FIG. 1 depicts the effect of different concentrations of KRAS G12C inhibitor in combination with AMP945 on the proliferation of NCI-H2122 cells. Three different drug concentrations were selected for KRAS G12C inhibitor: 10 µM, 2 µM, and 0.4 µM. A fixed concentration of ¼IC50 was selected for AMP945. • FIG. 2 depicts the effect of different concentrations of KRAS G12C inhibitor in combination with Defactinib on the proliferation of NCI-H2122 cells. Three different drug concentrations were selected for KRAS G12C inhibitor: 10 µM, 2 µM, and 0.4 µM. A fixed concentration of ¼IC50 was selected for Defactinib. • FIG. 3 depicts the effect of different concentrations of KRAS G12C inhibitor in combination with AMP945 on the proliferation of NCI-H358 cells. Three different drug concentrations were selected for KRAS G12C inhibitor: 10 µM, 0.016 µM, and 0.0032 µM. A fixed concentration of ¼IC50 was selected for AMP945. • FIG. 4 depicts the effect of different concentrations of KRAS G12C inhibitor in combination with Defactinib on the proliferation of NCI-H358 cells. Three different drug concentrations were selected for KRAS G12C inhibitor: 10 µM, 0.016 µM, and 0.0032 µM. […]

Assay [2] concerns CT26 cells. Briefly: Cell proliferation IC50 previously detected on CT26 cells. Particulars: single agent. On the procedure: The IC50s of AMP945 and Defactinib previously detected on CT26 cells were 6.2 µM and 6.9 µM, respectively. Therefore, the ¼IC50 for AMP945 in this experiment was 1.55 µM, and the ¼IC50 for Defactinib was 1.72 µM. Table 2: Grouping scheme for NCI-H358 cell proliferation inhibition assay

A word on the IC50: it is the midpoint of a concentration-inhibition curve. As to `Cc1cc(Nc2ncc(Cl)c(Nc3ccccc3S(=O)(=O)C(C)C)n2)c(OC(C)C)cc1C1=CCN(C2CCOCC2)CC1`, the concentration for half-maximal inhibition (IC50) in assay [1] worked out at 3.5 µM.
As for `COc1cc(C2CCN(C)CC2)ccc1Nc1ncc(C(F)(F)F)c(CCc2ccccc2CC(N)=O)n1`, the concentration for half-maximal inhibition (IC50) in assay [2] was 6.2 µM.
In the case of `COc1cc(N2CCC(N3CCN(C)CC3)CC2)ccc1Nc1nc2c(c(Nc3ccccc3S(=O)(=O)NC(C)C)n1)CCN2`, in assay [1], the concentration for half-maximal inhibition (IC50) worked out at 7 µM.

Source of the values: EP4847025A1, “JOINT USE OF FAK INHIBITOR AND KRAS G12C INHIBITOR” (dated 2026).
